From paper PMC2929362 (Bioorganic & medicinal chemistry, 2009)

Amino acid sequences for entries named in this document (tags omitted). Residues count along the entry.
UniProt P53686, 1-294: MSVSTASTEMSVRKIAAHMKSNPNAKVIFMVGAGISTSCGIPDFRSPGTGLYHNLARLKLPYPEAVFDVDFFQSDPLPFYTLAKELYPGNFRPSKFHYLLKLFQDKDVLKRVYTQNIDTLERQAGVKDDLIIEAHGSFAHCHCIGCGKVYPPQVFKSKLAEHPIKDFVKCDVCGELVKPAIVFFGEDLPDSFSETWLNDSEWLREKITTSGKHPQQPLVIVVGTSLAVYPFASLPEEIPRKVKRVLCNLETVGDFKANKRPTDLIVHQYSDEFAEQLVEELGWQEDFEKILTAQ

Target: Hst2 (Saccharomyces cerevisiae, UniProt P53686)
Experiment: biochemical

Structure (SMILES): COCC#CC1c2cc(O)c(OC)cc2CCN1C (centres unmarked) [Compound 14a, 6-Methoxy-1-(3-methoxy-prop-1-ynyl)-2-methyl-1,2,3,4-tetrahydro-isoquinolin-7-ol]
- activity at 50 µM (read-out: % Activity at 50 μM): 76%
- activity at 500 µM (read-out: % Activity at 500 μM): 5%
